Test results as given in patent US20090043129A1 (priority 2005, published 2009).

Protein sequences, listed by entry. Tags and fused reporters are not part of them.
UniProt P21554, whole entry: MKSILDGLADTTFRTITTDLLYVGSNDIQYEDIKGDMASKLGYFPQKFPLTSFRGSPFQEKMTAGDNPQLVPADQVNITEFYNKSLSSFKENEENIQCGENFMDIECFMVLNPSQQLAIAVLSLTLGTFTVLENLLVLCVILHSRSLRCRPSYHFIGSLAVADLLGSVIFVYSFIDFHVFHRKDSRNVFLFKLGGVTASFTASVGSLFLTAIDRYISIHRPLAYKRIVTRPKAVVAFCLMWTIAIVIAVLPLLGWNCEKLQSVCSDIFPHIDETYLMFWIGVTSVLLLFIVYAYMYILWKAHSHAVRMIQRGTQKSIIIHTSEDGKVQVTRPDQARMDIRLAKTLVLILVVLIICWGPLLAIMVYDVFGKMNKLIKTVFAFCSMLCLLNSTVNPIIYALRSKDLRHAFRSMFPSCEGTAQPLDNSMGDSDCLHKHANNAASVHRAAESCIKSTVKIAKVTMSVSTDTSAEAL
UniProt P47746, whole entry: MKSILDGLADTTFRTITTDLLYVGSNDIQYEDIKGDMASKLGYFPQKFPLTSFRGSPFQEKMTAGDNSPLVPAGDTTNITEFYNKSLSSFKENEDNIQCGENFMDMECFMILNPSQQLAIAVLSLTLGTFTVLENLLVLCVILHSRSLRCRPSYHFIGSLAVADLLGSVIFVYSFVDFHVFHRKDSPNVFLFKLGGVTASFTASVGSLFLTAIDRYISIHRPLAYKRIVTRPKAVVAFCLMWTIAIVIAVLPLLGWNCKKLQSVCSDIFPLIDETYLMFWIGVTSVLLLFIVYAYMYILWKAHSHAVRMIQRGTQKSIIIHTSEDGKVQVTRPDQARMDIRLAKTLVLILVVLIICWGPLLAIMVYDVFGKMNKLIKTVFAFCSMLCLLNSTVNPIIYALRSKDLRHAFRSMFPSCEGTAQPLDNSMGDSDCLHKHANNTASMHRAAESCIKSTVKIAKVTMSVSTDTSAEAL

Assays:
[1] = molecular target: human recombinant CB1 receptor (Homo sapiens, UniProt P21554); assay type: binding; parameters: purchased Perkin-Elmer; host or cells: COS cells
[2] = molecular target: T1, CB1 cannabinoid receptors (Mus musculus, UniProt P47746); test: Forskolin-induced cyclic AMP in N18TG2 neuroblastoma cells; assay type: cell-based; details: cAMP
T1 construct: N18TG2 mouse neuroblastoma cells, which constitutively and selectively express the CB 1 cannabinoid receptors; endogenous in cells; host or cells: N18TG2 mouse neuroblastoma cells
Experimental: After incubation, 800 μl of methanol were added, cells were extracted and cyclic AMP was determined with a cyclic AMP assay kit (Amersham, UK), in accordance with the supplier's recommendations.

Row | Compound | Ki [1] | functional behaviour at CB1 receptors [2]
1 | CCCCCCc1ccc(O)cc1OCCCCCCCCCCC(=O)NCCO [Compound 51, 11-(2-Hexyl-5-hydroxy-phenoxy)-undecanoic acid (2-hydroxy-ethyl)-amide] | 1.13 µM | 
2 | Cc1c(C(=O)c2cccc3ccccc23)c2cccc3c2n1[C@H](CN1CCOCC1)CO3 [WIN, 55-212, reference compound] |  | agonist
